Sequences of proteins named here, by UniProt entry; tags and fusion partners are left off.
UniProt P29476, whole entry: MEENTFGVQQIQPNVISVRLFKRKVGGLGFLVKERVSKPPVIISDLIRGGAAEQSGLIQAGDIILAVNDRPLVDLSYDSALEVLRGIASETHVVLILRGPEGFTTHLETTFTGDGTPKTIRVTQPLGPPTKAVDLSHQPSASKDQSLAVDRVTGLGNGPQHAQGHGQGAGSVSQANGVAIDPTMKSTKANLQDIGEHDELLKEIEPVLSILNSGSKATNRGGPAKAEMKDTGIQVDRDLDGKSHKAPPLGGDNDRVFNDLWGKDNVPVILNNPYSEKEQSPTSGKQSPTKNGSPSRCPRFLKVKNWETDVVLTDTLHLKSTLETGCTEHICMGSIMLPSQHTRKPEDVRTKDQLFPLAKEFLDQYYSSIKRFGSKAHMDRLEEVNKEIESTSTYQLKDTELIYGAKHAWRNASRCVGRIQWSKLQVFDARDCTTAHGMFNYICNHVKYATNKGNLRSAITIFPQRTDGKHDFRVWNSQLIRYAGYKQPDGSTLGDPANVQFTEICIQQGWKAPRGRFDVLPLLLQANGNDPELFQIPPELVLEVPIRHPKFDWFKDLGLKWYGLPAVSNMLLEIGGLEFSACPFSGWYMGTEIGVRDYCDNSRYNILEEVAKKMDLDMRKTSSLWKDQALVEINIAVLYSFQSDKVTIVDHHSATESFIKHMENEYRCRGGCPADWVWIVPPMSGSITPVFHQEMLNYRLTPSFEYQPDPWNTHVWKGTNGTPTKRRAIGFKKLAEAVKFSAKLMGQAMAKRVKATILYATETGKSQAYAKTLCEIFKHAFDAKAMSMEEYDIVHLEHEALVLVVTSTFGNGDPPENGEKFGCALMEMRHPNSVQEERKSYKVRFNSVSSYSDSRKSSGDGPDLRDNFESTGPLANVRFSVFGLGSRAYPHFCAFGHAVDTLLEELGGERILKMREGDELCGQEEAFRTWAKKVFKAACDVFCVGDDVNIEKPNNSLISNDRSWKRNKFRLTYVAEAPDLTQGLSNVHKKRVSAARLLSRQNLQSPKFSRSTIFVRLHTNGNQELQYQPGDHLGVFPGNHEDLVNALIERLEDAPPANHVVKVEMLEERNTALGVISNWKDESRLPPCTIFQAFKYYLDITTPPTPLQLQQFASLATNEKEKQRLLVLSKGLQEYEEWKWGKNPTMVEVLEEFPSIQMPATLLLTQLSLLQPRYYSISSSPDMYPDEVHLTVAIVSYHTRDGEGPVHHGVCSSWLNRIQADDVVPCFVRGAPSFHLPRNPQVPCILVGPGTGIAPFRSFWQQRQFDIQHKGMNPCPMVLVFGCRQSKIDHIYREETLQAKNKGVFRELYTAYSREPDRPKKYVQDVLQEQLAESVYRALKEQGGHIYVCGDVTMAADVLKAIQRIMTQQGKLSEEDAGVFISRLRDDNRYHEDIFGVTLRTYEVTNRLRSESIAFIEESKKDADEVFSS

In ChEMBL document CHEMBL4152230, “Discovery of N-{3-[(ethanimidoylamino)methyl]benzyl}-l-prolinamide dihydrochloride: A new potent and selective inhibitor of the inducible nitric oxide synthase as a promising agent for the therapy of malignant glioma” (Eur J Med Chem, 2018):

Tests used:
[1] = molecular target: Nitric oxide synthase 1 (Rattus norvegicus, UniProt P29476); assay: Inhibition of recombinant rat nNOS using [3H]L-arginine as substrate preincubated for 15 mins followed by NADPH addition measured after 20 mins in presence of FMN/FAD by liquid scintillation counting method
[2] = molecular target: T1, Nitric oxide synthase 3 (Bos taurus, UniProt P29473); assay: Inhibition of recombinant bovine eNOS using [3H]L-arginine as substrate preincubated for 15 mins followed by NADPH addition measured after 20 mins in presence of FMN/FAD by liquid scintillation counting method
T1 sequence (P29473 whole entry): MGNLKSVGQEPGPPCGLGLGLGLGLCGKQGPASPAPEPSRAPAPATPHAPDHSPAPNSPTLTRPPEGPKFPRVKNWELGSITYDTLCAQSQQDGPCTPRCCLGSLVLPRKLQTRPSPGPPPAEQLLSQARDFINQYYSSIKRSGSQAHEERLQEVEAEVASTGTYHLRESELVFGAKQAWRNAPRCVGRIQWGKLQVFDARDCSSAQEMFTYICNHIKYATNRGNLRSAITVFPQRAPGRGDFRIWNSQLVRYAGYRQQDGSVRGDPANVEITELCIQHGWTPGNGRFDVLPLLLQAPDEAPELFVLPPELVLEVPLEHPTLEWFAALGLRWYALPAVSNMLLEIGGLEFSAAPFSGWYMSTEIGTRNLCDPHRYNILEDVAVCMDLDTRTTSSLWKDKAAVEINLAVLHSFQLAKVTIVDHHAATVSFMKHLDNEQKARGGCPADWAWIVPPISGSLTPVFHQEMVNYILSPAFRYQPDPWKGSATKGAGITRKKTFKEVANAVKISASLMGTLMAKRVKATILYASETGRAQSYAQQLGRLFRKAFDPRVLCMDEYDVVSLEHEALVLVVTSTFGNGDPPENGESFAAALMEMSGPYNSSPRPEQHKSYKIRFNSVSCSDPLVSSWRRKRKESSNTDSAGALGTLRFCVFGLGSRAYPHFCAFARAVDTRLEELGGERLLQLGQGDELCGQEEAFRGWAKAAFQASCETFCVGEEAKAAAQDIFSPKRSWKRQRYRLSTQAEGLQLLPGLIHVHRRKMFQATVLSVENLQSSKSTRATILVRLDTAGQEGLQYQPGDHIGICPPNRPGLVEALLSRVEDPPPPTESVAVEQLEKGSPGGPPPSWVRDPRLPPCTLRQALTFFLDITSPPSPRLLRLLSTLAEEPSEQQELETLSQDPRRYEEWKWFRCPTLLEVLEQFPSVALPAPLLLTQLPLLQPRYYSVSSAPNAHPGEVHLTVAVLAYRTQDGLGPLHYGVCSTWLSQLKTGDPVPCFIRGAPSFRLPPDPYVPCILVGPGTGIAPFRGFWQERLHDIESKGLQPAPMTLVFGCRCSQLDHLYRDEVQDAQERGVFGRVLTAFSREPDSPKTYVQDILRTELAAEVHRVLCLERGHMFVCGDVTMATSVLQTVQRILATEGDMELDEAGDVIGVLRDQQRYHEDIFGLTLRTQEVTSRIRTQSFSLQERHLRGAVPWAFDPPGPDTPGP

- IC50 [1]: 7.8 µM
- IC50 [2]: 384 µM
SMILES: CC(=N)NCc1cccc(CN)c1 [1400W]
